Target: T1, V2Rβ2CT (Homo sapiens, UniProt P07550+P30518)
T1 construct: the first 342 amino acids of the V2R (Met1-Cys342); the last 72 amino acids of the β2AR (Leu342 to Leu 413); expressed in transfected cells; host or cells: HEK-293
Assay: Confocal microscopy of arrestin trafficking with V2Rβ2CT in HEK-293 cells
Assay type: cell-based
Details: live HEK-293 cells expressing V2Rβ2CT, 15 min and longer
Experimental: HEK-293 cells were transiently transfected with either YFP-β-arrestin2 or YFP-β-arrestin2-Ub along with β2AR (A) or V2Rβ2CT (B). Cells were starved for one hour in serum free media. The distribution of YFP-β-arrestin2 and YFP-β-arrestin2-Ub was visualized before and after treatment with 10 μM isoproterenol(A) or AVP (B). Shown are representative confocal images of YFP-fluorescence followed in the same HEK-293 cells treated for 2, 15 and 30 min at 37° C.
HEK-293 cells on 10 cm dishes were transiently transfected with HA-β2AR, HA-V2R, HAβ2ARV2CT, or HAV2Rβ2CT, along with β-arr2-GFP, or YFP-βarrestin2, or YFP-β-arrestin2-Ub. Twenty-four hours post-transfection cells were plated on collagen-coated 35 mm glass bottom plates. Cells were starved for at least 2 hrs in serum free medium prior to stimulation. After stimulation cells were fixed with 4% paraformaldehyde. For visualizing HA-tagged receptors, fixed cells were permeabilized with 0.01% Triton in PBS containing 2% BSA for 20 min and incubated at room temperature with 12CA5 antibody at 1:500 dilution. The secondary antibody, antimouse IgG conjugated to TexasRed, followed this. Antibody incubations were done for one hour followed by repeated washes using PBS. Cells expressing low and equivalent levels of the fluorescent proteins were carefully selected to examine YFP-β-arrestins. […]

YFP-β-arrestin2: wild type β-arrestin2 tagged with YFP, comparator
distribution of YFP fluorescence after AVP: remained at the plasma membrane at longer time points
